Source: ChEMBL document CHEMBL4390673, “Identification of Novel Coumestan Derivatives as Polyketide Synthase 13 Inhibitors against Mycobacterium tuberculosis. Part II” (J Med Chem, 2019)

Experiment: in vitro
Conditions: human, liver microsomes

Compound `C[C@]12CC[C@H]3[C@@H](CCC4=CC(=O)CC[C@@]43C)[C@@H]1CC[C@@H]2O` [TESTOSTERONE] has a CLint scaled of 69.8 mL/min/kg.
